This note sets out measurements from PubChem BioAssay AID1259374 (The Scripps Research Institute Molecular Screening Center, 2018).

By UniProt entry, the sequences of proteins in these tests, tags left out. Where a name states a change or a piece, a line headed by the entry shows the natural chain unless it says otherwise.
UniProt O75030: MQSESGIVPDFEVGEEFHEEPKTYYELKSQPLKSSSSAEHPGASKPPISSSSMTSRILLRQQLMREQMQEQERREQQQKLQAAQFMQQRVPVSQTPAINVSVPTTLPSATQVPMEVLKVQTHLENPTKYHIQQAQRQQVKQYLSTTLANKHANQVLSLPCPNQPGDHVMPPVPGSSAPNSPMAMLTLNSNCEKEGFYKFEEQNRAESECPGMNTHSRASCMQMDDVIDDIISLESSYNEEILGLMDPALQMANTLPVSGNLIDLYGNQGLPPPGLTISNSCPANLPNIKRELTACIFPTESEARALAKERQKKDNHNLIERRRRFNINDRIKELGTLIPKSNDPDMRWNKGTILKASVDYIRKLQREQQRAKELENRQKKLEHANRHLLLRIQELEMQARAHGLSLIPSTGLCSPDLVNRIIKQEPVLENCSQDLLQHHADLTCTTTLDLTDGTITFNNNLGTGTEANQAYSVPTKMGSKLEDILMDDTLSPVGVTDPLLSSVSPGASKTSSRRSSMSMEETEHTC

The entries are a selection whose mix differs from that of the whole data set. Activity calls are given as the source filed them. Cut-off read from the data, not from the text of the source: active = inhibition above about 50%; inactive = the rest.

In this assay the target is Microphthalmia-associated transcription factor (Homo sapiens) (UniProt O75030). Nature of the assay: MITF inhibitors, primary screen, biochemical, AlphaScreen, human (AID 1259374).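 Note: 0% = vehicle wells with protein.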 Particulars: AlphaScreen MITF homodimerization, bead proximity signal; at 2.6 µM; hits give high values.
As for `COc1ccc(S(=O)(=O)N(CCCl)CCCl)cc1`, the inhibition was inactive: -5.76%.

In the case of `CC(C)NC(=O)N(Cc1cccnc1)C1CCN(CCc2cccs2)CC1`, the inhibition is inactive: 2.11%.

Turning to `Cc1ccc(NP(=O)(OCC(C)C)OCC(C)C)nc1`, the inhibition is inactive: 7.75%.

Regarding `COc1ccc(CCN2CCC(N(Cc3ccco3)C(=O)c3cccc(C#N)c3)CC2)cc1`, the inhibition was inactive: 13.5%.

For `O=C(N/N=C/c1ccc([N+](=O)[O-])o1)c1cc([N+](=O)[O-])cc([N+](=O)[O-])c1`, the inhibition is inactive: 15.2%.

On to `CCOP(=O)(Nc1cccc(F)c1)OCC`, for which the inhibition was inactive: -15.2%.

As for `CNC(=O)c1nsnc1NCCCl`, the inhibition was inactive: 4.12%.

On to `CC1Cc2ccccc2N1C(=O)COC(=O)C(O)(c1ccccc1)c1ccccc1` (stereo unspecified), for which the inhibition was inactive: 2.34%.

Take `O=C(Nc1cccc(F)c1)N(Cc1ccco1)C1CCN(CCc2cccs2)CC1`: the inhibition was inactive: -0.42%.

Regarding `O=C(COc1ccccc1[N+](=O)[O-])N/N=C/c1cc([N+](=O)[O-])cc([N+](=O)[O-])c1O`, the inhibition is inactive: -9.62%.

For `C/C(=N\Nc1ccc([N+](=O)[O-])cc1[N+](=O)[O-])c1ccc([N+](=O)[O-])cc1`, the inhibition is inactive: 9.14%.

Consider `O=C(COC(=O)C(O)(c1ccccc1)c1ccccc1)NCCN1C(=O)CSC1=O`, for which the inhibition was inactive: 0.29%.

As to `COc1ccccc1OP(=O)(Nc1ccccn1)Oc1ccccc1OC`, the inhibition is inactive: 5.39%.

Turning to `CCc1cc2c[n+](C3CCCCC3)sc2s1`, the inhibition is inactive: -1.49%.

In the case of `CC(=O)OC1CN2CCC1C(c1ccccc1)C2` (stereo unspecified), the inhibition is inactive: 14.1%.

On to `O=[N+]([O-])c1cc([N+](=O)[O-])c(NCCCO)c([N+](=O)[O-])c1`, for which the inhibition is inactive: -9.57%.

As to `CCOC(=O)C(C)NC(=O)CSP(=O)(OCC)OCC` (stereo unspecified), the inhibition is inactive: 2.78%.

Consider `COC(=O)N(c1ccccc1)P1OCC(C)O1` (stereo unspecified), for which the inhibition is inactive: 13.1%.

Turning to `CC(C)OP(=O)(OC(C)C)N1CCCCC1`, the inhibition is inactive: 8.54%.

On to `CCOc1ccc(S(=O)(=O)N(CCCl)CCCl)cc1`, for which the inhibition was inactive: -10.8%.

Consider `O=C(OC1CN2CCC1CC2)c1cccc(Cl)c1` (stereo unspecified), for which the inhibition is inactive: 12.3%.

For the compound `Nc1nonc1OCc1nonc1COc1nonc1N`, the inhibition is inactive: 11.6%.

As to `CC(=O)O[C@H]1CN2CCC1[C@@H](c1ccccc1)C2` (stereo partly specified), the inhibition is inactive: 3.4%.

With `O=C(c1ccco1)N(Cc1cccnc1)C1CCN(CCc2ccccn2)CC1`, the inhibition is inactive: 6.76%.

As to `CCOP(=S)(NN(CCCl)c1ccccc1)OCC`, the inhibition was inactive: 1.44%.

For `CN(C(=O)Cc1ccc(Cl)c(Cl)c1)[C@@H]1CCCC[C@@H]1N1CCCC1`, the inhibition is inactive: 21.4%.

As to `COc1ccc([N+](=O)[O-])cc1NC(=O)c1ccc([N+](=O)[O-])cc1[N+](=O)[O-]`, the inhibition is inactive: 9.23%.

`O=c1c2cc([N+](=O)[O-])ccc2[nH]c2c([N+](=O)[O-])cc([N+](=O)[O-])cc12`: the inhibition was inactive: 20.7%.

`CC(=O)N(Cc1ccco1)C1CCN(CCc2ccccn2)CC1`: the inhibition was inactive: 13.4%.

With `CC(C)OP(=O)(OC(C)C)C(C)N` (stereo unspecified), the inhibition was active: 58.9%.

Turning to `CN(C)c1ccc2c(c1)N1Cc3ccccc3C1=NP2(=O)c1ccccc1` (stereo unspecified), the inhibition is inactive: -3.42%.

For `Cc1c([N+](=O)[O-])cc(C(=O)c2cc([N+](=O)[O-])c(C)c([N+](=O)[O-])c2)cc1[N+](=O)[O-]`, the inhibition was inactive: -11.4%.

With `O=C(COC(=O)C(O)(c1ccccc1)c1ccccc1)NC12CC3CC(CC(C3)C1)C2`, the inhibition was inactive: -3.87%.

On to `ClC1CSc2nc3ccccc3n2C1` (stereo unspecified), for which the inhibition was inactive: 3.95%.

Consider `O=C(NNc1ccc([N+](=O)[O-])cc1[N+](=O)[O-])c1cccc([N+](=O)[O-])c1`, for which the inhibition is inactive: 11.4%.

`O=C(c1cccc([N+](=O)[O-])c1)c1ccc([N+](=O)[O-])c([N+](=O)[O-])c1`: the inhibition is inactive: 1.85%.

Turning to `O=[N+]([O-])c1ccc(N/N=C/c2ccc([N+](=O)[O-])o2)c([N+](=O)[O-])c1`, the inhibition is inactive: 5.13%.

Regarding `COC(=O)N(c1ccccc1)P1(=S)OCC(C)O1` (stereo unspecified), the inhibition was inactive: 17.6%.

In the case of `O=P1(c2ccccc2)N=C(c2ccccc2)NC(C(Cl)(Cl)Cl)=N1` (stereo unspecified), the inhibition was inactive: 6.26%.

`O=C(Nc1cccc(F)c1)N(Cc1cccnc1)C1CCN(CCc2cccs2)CC1`: the inhibition was inactive: 0.97%.

Regarding `CCOP(=O)(OCC)C(=O)c1ccccc1I`, the inhibition is inactive: 2.51%.

Turning to `O=C(NNC1=NCC(CBr)S1)c1ccccc1` (stereo unspecified), the inhibition was inactive: 1.63%.

For `CCOC(=O)c1ccc(NC2=NCC(CBr)S2)cc1` (stereo unspecified), the inhibition was inactive: 18.7%.

In the case of `Cc1ccc2nc(NCCCl)[nH]c2c1`, the inhibition is inactive: -1.22%.

Consider `CCOP(=O)(OCC)C(NC(=O)OC)C(Cl)(Cl)Cl` (stereo unspecified), for which the inhibition was inactive: -0.5%.

As for `O=[N+]([O-])c1ccc(NCCCCNc2ccc([N+](=O)[O-])cc2[N+](=O)[O-])c([N+](=O)[O-])c1`, the inhibition was inactive: -0.99%.

Regarding `CCOP1(=O)O/C(=C\Cl)CN1c1ccccc1` (stereo unspecified), the inhibition is inactive: -0.82%.

For the compound `Cc1ccc([N+](=O)[O-])c2no[n+]([O-])c12`, the inhibition is active: 105%.

Regarding `O=P1(Nc2nc3ccc(Cl)cc3s2)COc2ccccc2O1` (stereo unspecified), the inhibition is inactive: 27.1%.

With `CN(C)c1ccc(/[N+]([O-])=C/c2c([N+](=O)[O-])cc([N+](=O)[O-])cc2[N+](=O)[O-])cc1`, the inhibition is inactive: 21.2%.

Take `O=P1(Nc2nncs2)C=C(c2ccccc2)SC(c2ccccc2)=C1`: the inhibition is inactive: -4.09%.

Consider `CNc1c([N+](=O)[O-])cc([N+](=O)[O-])c2nonc12`, for which the inhibition is inactive: 18.3%.

With `Cc1cc(NC2=NC3C(C(=O)N(C)C(=O)N3C)N2C)n(-c2ccccc2)n1` (stereo unspecified), the inhibition was inactive: 19.3%.

As to `CCOP(=O)(OCC)C(OC(=O)C(Cl)(Cl)Cl)=C(Cl)Cl`, the inhibition is inactive: -0.86%.

With `O=C(c1cccnc1)N(Cc1ccco1)C1CCN(CCc2ccccn2)CC1`, the inhibition is inactive: 4.14%.

On to `O=[N+]([O-])c1cc([N+](=O)[O-])c(N(CC(O)CO)c2ccccc2)c([N+](=O)[O-])c1` (stereo unspecified), for which the inhibition was inactive: 0.37%.

Take `COC(=O)C(CC(C)C)NC(=O)NP(=O)(Oc1ccccc1)Oc1ccccc1` (stereo unspecified): the inhibition is inactive: -0.99%.

In the case of `O=C(Nc1ccc([N+](=O)[O-])cc1Cl)c1ccc([N+](=O)[O-])cc1[N+](=O)[O-]`, the inhibition was inactive: 6.39%.

With `Nc1cc(N)c2nonc2c1[N+](=O)[O-]`, the inhibition was inactive: -9.92%.

Turning to `COc1ccc2c(c1)nc(NCCCl)n2C`, the inhibition is inactive: 9.59%.

In the case of `Oc1ccccc1CNc1ccccn1`, the inhibition is inactive: -4.83%.

For `Nc1c([N+](=O)[O-])cc([N+](=O)[O-])c(Nc2cccc(C(=O)O)c2)c1[N+](=O)[O-]`, the inhibition is inactive: 2.04%.

Take `Cc1cc(SC(NC(=O)CC(C)C)C(Cl)(Cl)Cl)ncn1` (stereo unspecified): the inhibition is inactive: -11.1%.

As to `N=C1N=C(c2ccc([N+](=O)[O-])cc2)CC(C(Cl)(Cl)Cl)S1` (stereo unspecified), the inhibition is inactive: -6.14%.

`CC(=O)OC=C1c2cc([N+](=O)[O-])cc([N+](=O)[O-])c2-c2c1cc([N+](=O)[O-])cc2[N+](=O)[O-]`: the inhibition was inactive: 0.27%.

On to `O=C(Nc1ccc(C(F)(F)F)cc1[N+](=O)[O-])c1cc([N+](=O)[O-])cc([N+](=O)[O-])c1`, for which the inhibition was inactive: 34.9%.

Take `NC(=O)c1cc([N+](=O)[O-])cc([N+](=O)[O-])c1N`: the inhibition is inactive: -1.79%.

With `Cc1ccc(N/C(=N/P(=O)(N2CCOCC2)N2CCOCC2)N2CCOCC2)cc1`, the inhibition is inactive: -8%.

On to `Cc1cc(C)nc(SC(NC(=O)C(C)C)C(Cl)(Cl)Cl)n1` (stereo unspecified), for which the inhibition was inactive: 4.12%.

Take `CCOC(=O)N1C2CCC1CC(OC(=O)C(O)(c1ccccc1)c1ccccc1)C2` (stereo unspecified): the inhibition was inactive: -0.44%.

As to `COc1ccc(CCN2CCC(N(Cc3ccco3)C(=O)NC(C)C)CC2)cc1`, the inhibition was inactive: -1.42%.

For the compound `CCN(CC)C1=NP(=O)(c2ccccc2)NC(c2ccccc2)=C1C#N` (stereo unspecified), the inhibition was inactive: -1.04%.

As for `CCOc1ccc(/C=C2/C(=O)NC(=O)N(Cc3ccco3)C2=O)cc1`, the inhibition was active: 74.1%.

For the compound `CCCCOP(=O)(OCCCC)SC`, the inhibition was inactive: 5.99%.

With `COC(=O)c1ccc(OP2(=S)OCC(C)(C)CO2)cc1`, the inhibition is inactive: -2.68%.

In the case of `CCOP(=O)(OCC)SCC(=O)NCCC(=O)O`, the inhibition was inactive: 1.27%.

With `O=[N+]([O-])c1cc([N+](=O)[O-])c(CCN2CCOCC2)c([N+](=O)[O-])c1`, the inhibition is inactive: 19.8%.

On to `CN(C(=O)COC(=O)C(O)(c1ccccc1)c1ccccc1)c1ccccc1`, for which the inhibition is inactive: -0.46%.

Consider `O=[N+]([O-])c1ccc(Oc2ccccc2[N+](=O)[O-])c([N+](=O)[O-])c1`, for which the inhibition is inactive: 11.8%.

On to `O=C(Nc1ccccc1[N+](=O)[O-])c1ccc([N+](=O)[O-])cc1[N+](=O)[O-]`, for which the inhibition was inactive: 11.4%.

`CCOP(=O)(OCC)C(=O)c1ccccc1Cl`: the inhibition was inactive: 2.77%.

On to `COc1ccc(NC2=NCC(CBr)S2)cc1` (stereo unspecified), for which the inhibition was inactive: -3.06%.

For `O=[N+]([O-])c1cc([N+](=O)[O-])c(OCC(O)C[n+]2ccccc2)c([N+](=O)[O-])c1` (stereo unspecified), the inhibition was inactive: 2.32%.

Regarding `CCOP(=Nc1nc2ccccc2n2nnnc12)(OCC)OCC`, the inhibition is inactive: 1.94%.

As for `CC(C)(C)C(=O)NC(Sc1ccncn1)C(Cl)(Cl)Cl` (stereo unspecified), the inhibition is inactive: 3.35%.

As for `Cc1c(Nc2ccc([N+](=O)[O-])cc2[N+](=O)[O-])cccc1[N+](=O)[O-]`, the inhibition is inactive: 18%.

With `C/C(=N\Nc1ccc([N+](=O)[O-])cc1[N+](=O)[O-])c1cccc([N+](=O)[O-])c1`, the inhibition is inactive: -6.16%.

On to `CN1C(=O)C2C(NC(=NCCN3CCOCC3)N2C)N(C)C1=O` (stereo unspecified), for which the inhibition was inactive: 17.1%.

With `C[n+]1c2n(c3ccccc31)CC(Cl)CS2` (stereo unspecified), the inhibition is inactive: 9.09%.

Turning to `O=[N+]([O-])c1cc(/C=N/N=C/c2cc([N+](=O)[O-])cc([N+](=O)[O-])c2O)c(O)c([N+](=O)[O-])c1`, the inhibition is inactive: 19.4%.

Turning to `O=C(c1ccc2c(c1)OCO2)N(Cc1ccco1)C1CCN(CCc2ccccn2)CC1`, the inhibition is inactive: 1.08%.
